Sequences of proteins named here, by UniProt entry; tags and fusion partners are left off.
UniProt P10275, whole entry F877L: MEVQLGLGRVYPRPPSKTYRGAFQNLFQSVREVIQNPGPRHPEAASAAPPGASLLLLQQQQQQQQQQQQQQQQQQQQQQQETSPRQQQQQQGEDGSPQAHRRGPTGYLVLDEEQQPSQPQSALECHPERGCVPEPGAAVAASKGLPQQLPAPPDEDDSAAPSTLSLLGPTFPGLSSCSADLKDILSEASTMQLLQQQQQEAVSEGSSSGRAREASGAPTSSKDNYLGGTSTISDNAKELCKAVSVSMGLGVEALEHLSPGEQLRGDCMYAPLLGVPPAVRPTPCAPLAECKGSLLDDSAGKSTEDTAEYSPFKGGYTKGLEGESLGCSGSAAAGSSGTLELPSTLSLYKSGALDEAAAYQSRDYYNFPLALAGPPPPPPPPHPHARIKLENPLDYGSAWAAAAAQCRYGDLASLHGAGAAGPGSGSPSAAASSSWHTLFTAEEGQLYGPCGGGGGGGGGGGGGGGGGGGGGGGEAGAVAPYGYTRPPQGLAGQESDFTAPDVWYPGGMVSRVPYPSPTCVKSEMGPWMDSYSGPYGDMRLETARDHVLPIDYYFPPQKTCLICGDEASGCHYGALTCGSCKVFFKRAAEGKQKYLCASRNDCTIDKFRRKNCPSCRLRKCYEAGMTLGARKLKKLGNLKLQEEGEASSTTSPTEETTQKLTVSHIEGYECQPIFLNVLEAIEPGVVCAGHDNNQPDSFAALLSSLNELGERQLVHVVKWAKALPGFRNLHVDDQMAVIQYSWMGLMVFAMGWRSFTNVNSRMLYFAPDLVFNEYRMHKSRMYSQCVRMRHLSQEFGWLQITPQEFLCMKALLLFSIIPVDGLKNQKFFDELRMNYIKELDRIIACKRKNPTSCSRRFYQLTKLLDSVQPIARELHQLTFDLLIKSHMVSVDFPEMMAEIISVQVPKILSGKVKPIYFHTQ

According to patent publication US20240190851A1, “FURAN FUSED RING-SUBSTITUTED GLUTARIMIDE COMPOUND” (MEDSHINE DISCOVERY INC., priority 2021, published 2024):

How the values were obtained:
[1] = target: AR F876L (Homo sapiens, UniProt P10275, F877L); assay: In cell western of AR protein in 293T AR F876L cells; details: AR degradation, 48 hours
Protocol: Experimental purpose: In this experiment, the effects of compounds WX015, WX016, and WX017 on the expression level of AR protein with point mutation in cell line 293T AR F876L were detected by in cell western assay to evaluate the degradation effect of compounds on proteins with AR F876L point mutation.
The cell line was cultured in a 37° C., 5% CO2 incubator. Regular passage, and cells in logarithmic growth phase were taken for plating.
2. Cell Plating: • 1) Cells were stained with trypan blue and viable cells were counted. • 2) The cell concentration was adjusted to an appropriate concentration with a density of 20000/well. • 3) 90 μL of cell suspension per well was added to a 96-well culture plate, and cell-free culture medium was added to the blank control well. • 4) The culture plate was cultured overnight in a 37° C., 5% CO2 incubator with 100% relative humidity.
3. Preparation of compound storage plate and in cell western detection: • 1) Preparation of 400× compound storage plate: The compound was serially diluted with DMSO from the highest concentration to the lowest concentration. • 2) Preparation of 10× compound working solution: To a V-bottom 96-well plate was added 78 μL of cell culture medium, and 2 μL of compound was pipetted from a 400× compound storage plate and added to the cell culture medium of the 96-well plate. 2 μL of DMSO was added to vehicle control and blank control. After the compound or DMSO was added, blowing with a pipette and mixing well were carried out. • 3) Administration: 10 μL of 10× compound working solution was added to the cell culture plate. To vehicle control and blank control was added 10 μL of DMSO-cell culture medium mixture. […] The plate was added with 50 μL of primary antibody diluted with Licor blocking buffer per well (no primary antibody was added to DMSO wells), incubated overnight at 4° C., and then washed five times with PBST (containing 0.1% Triton-X) for 5 minutes each time. • 9) The plate was added with 50 μL of secondary antibody diluted with Licor blocking buffer per well, incubated at room temperature for 1 hour, washed three times with PBST (containing 0.1% Triton-X), washed twice with ddH2O, and then added with 100 μL of PBS per well for detection. • 10) Detection: PBS was poured out of the well plate, and the fluorescence signal at 700 nm per well was detected by Li—COR odyssey two-color near-infrared imager.
Relative quantification of the density intensity of immunoblot chemiluminescence bands was performed using Image Studio Ver 5.2 software.

[2] = Pharmacokinetic evaluation in mice
Description: In this study, CB-17 SCID male mice were selected as experimental animals for the test compounds, and LCMS/MS method was used to quantify plasma concentrations of the test compound and the reference compound intravenously injected or orally administered to mice at different time points, so as to evaluate the pharmacokinetic profile of the test drug in mice.
CB-17 SCID mice (male, 20 to 30 g, 7 to 10 weeks old, Beijing Vital River or Shanghai SLAC).
A clarified solution or suspension of the test compound was injected into mice via the tail vein (without fasting), or intragastrically administered to mice (without fasting). For intravenous injection, blood was collected via the jugular vein puncture at 0 h (pre-administration), 0.083 h, 0.25 h, 0.5 h, 1 h, 2 h, 4 h, 8 h, and 24 h after administration, and placed in an anticoagulant tube added with EDTA-K2. The mixture was thoroughly vortexed and mixed, and centrifuged at 13000 rpm for 10 minutes at 4° C. For oral administration, blood was collected via the jugular vein puncture at 0 h (pre-administration), 0.5 h, 1 h, 2 h, 4 h, 6 h, 8 h, and 24 h after administration, and placed in an anticoagulant tube added with EDTA-K2. The mixture was thoroughly vortexed and mixed, and centrifuged at 13000 rpm for 10 minutes. Plasma concentrations were determined by LC-MS/MS method, and relevant pharmacokinetic parameters were calculated using WinNonlin™ Version 6.3 (Pharsight, Mountain View, CA) pharmacokinetic software with non-compartmental model linear-log trapezoidal method.

[3] = Pharmacokinetic evaluation in Beagles
Protocol: In this study, Beagles were selected as experimental animals for the test compounds, and LCMS/MS method was used to quantify plasma concentrations of the test compound and the reference compound intravenously injected or orally administered to Beagles at different time points, so as to evaluate the pharmacokinetic profile of the test drug in Beagles.
Beagles (male, Jiangsu Yadong Institute of Experimental Animals Co., Ltd.).
A clarified solution or suspension of the test compound was injected into Beagles via the tail vein (normal feeding), or intragastrically administered to Beagles (normal feeding). For intravenous injection, blood was collected via the forelimb vein puncture at 0 h (pre-administration), 0.25 h, 0.5 h, 1 h, 2 h, 4 h, 6 h, 8 h, 24 h, and 48 h after administration, and placed in an anticoagulant tube added with EDTA-K2. The collected blood sample was placed on ice, and centrifuged to separate plasma within 1 hour (centrifugation conditions: 6000 g, 3 minutes, 2 to 8° C.). For oral administration, blood was collected via the forelimb vein puncture at 0 h (pre-administration), 0.25 h, 0.5 h, 1 h, 2 h, 4 h, 6 h, 8 h, 24 h, 48 h after administration, and placed in an anticoagulant tube added with EDTA-K2. The collected blood sample was placed on ice, and centrifuged to separate plasma within 1 hour (centrifugation conditions: 6000 g, 3 minutes, 2 to 8° C.). Plasma concentrations were determined by LC-MS/MS method, and relevant pharmacokinetic parameters were calculated using WinNonlin™ Version 8.2.0 (Pharsight, Mountain View, CA) pharmacokinetic software with non-compartmental model linear-log trapezoidal method.

[4] = intravenous injection (1 mg/mL)
[5] = intravenous injection (0.5 mg/mL)

| SMILES | DC50 [1] [nM] | Dmax [1] [%] | Area under the drug-time curve (0-last) [2, 4] [µM·h] | Half-life [2, 4] [h] | Plasma clearance rate [2, 4] [mL/min/kg] | Area under the drug-time curve (0-last) ([2]; oral administration (10 mg/mL)) [µM·h] | Bioavailability F ([2]; oral administration (10 mg/mL)) [%] | Peak concentration ([2]; oral administration (10 mg/mL)) [nmol/L] | Time to peak concentration ([2]; oral administration (10 mg/mL)) [h] | Area under the drug-time curve (0-last) [3, 5] [µM·h] | Plasma clearance rate [3, 5] [mL/min/kg] | Area under the drug-time curve (0-last) ([3]; oral administration (3 mg/mL)) [µM·h] | Bioavailability F ([3]; oral administration (3 mg/mL)) [%] | Peak concentration ([3]; oral administration (3 mg/mL)) [nmol/L] | Time to peak concentration ([3]; oral administration (3 mg/mL)) [h] |
| --- | --- | --- | --- | --- | --- | --- | --- | --- | --- | --- | --- | --- | --- | --- | --- |
| N#Cc1ccc(O[C@H]2CC[C@H](NC(=O)c3ccc(N4CCC(CN5CCN(c6cccc7c6ccc6occ(C8CCC(=O)NC8=O)c67)CC5)CC4)nn3)CC2)cc1Cl (single isomer, unassigned) [WX016] | 18 | 86 | 6.192 | 31.4 | 1.41 | 30.541 | 49.3 | 1770 | 24 | 2.641 | 0.66 | 5.442 | 34.3 | 175 | 6 |
| N#Cc1ccc(O[C@H]2CC[C@H](NC(=O)c3ccc(N4CCC(CN5CCN(c6cccc7c6ccc6occ(C8CCC(=O)NC8=O)c67)CC5)CC4)nn3)CC2)cc1Cl (single isomer, unassigned) [WX017] | 97 | 95 | 4.651 | 8.31 | 3.92 | 22.39 | 48.1 | 1227 | 24 | 1.713 | 5.3 | 4.808 | 46.8 | 178 | 4.67 |
